From IntAct's records for PubMed 18723682

B1: Vacuolar protein sorting-associated protein 75 (Saccharomyces cerevisiae), P53853 (parent)
chain: MMSDQENENEHAKAFLGLAKCEEEVDAIEREVELYRLNKMKPVYEKRDAYIDEIAEFWKIVLSQHVSFANYIRASDFKYIDTIDKIKVEWLALESEMYDTRDFSITFHFHGIEGDFKEQQVTKVFQIKKGKDDQEDGILTSEPVPIEWPQSYDSINPDLIKDKRSPEGKKKYRQGMKTIFGWFRWTGLKPGKEFPHGDSLASLFSEEIYPFCVKYYAEAQRDLEDEEGESGLSADGDSEDDDGSLGEVDLPLSDEEPSSKKRKV

Variants of: B1
Details: with rt109_yeast RTT109, Q07794

effect of a mutation on the interaction	Variant
disrupting interaction	MMSDQENENEHAKAFLGLAKCEEEVDAIEREVELYRLNKMKPVYEKRDAYIDEIAEFWKIVLSQHVSFANYIRASDFKYIDTIDKIKVEWLALESEMYDTRDFSITFHFHGIEGDFKEQQVTKVFQIKKGKDDQEDGILTSEPVPIEWPQSYDSINPDLIKDKRSPEGKKKYRQGMKTIFGWFRWTGLKPGKEFPHGDSLASLFSEEIYPFCVKYYAKAQRKLEDEEGESGLSADGDSEDDDGSLGEVDLPLSDEEPSSKKRKV [E218K;D222K]
decreasing interaction	MMSDQENENEHAKAFLGLAKCEEEVDAIEREVELYRLNKMKPVYEKRDAYIDEIAEFWKIVLSQHVSFANYIRASDFKYIDTIDKIKVEWLALESEMYDTRDFSITFHFHGIEGDFKEQQVTKVFQIKKGKDDQEDGILTSEPVPIEWPQSYDSINPDLIKDKRSPEGKKKYEQGMETIFGWFRWTGLKPGKEFPHGDSLASLFSEEIYPFCVKYYAEAQRDLEDEEGESGLSADGDSEDDDGSLGEVDLPLSDEEPSSKKRKV [R173E;K177E]
